Assay results as given in paper PMC7872319, “Probing Biomolecular Interactions by a Pattern-Forming Peptide–Conjugate Sensor” (Bioconjugate Chemistry, 2020).

Tested on: MinD
Details: 1 μM MinD, 500 nM MinE(13-31)-biotin, 90 nM divalent streptavidin

Compound: O=C(O)CCCC[C@@H]1SC[C@@H]2NC(=O)N[C@@H]21 [free biotin, biotin]
- free biotin concentration altering pattern phenotype: < 10 nM
